Compound activity: PubChem, National Center for Advancing Translational Sciences (NCATS)
Compounds with a hit are over-represented: about 13% of the library has one in this group of screens.
Lamin A splicing = changes lamin A minigene splicing in HeLa cells; Potency, µM (top dose mostly 46.1 µM), for inactives: top-dose ratio change, negative = inhibition, actives largely listed as inhibitors; actives 0.01% (n = 200,000); HeLa LMNA splicing GFP/RFP minigene ratio, 48 h; active = well fitted inhibition curve with a large enough effect in the signal ratio, with a control signal flat, not every such curve was filed as active; inconclusive = small, poorly fitted or top-dose-only effect, or effect the other way, or a change in a side signal; the % refers to the signal ratio; note: potency is the fitted concentration of half-maximal effect; % is set by controls: 0 for no effect and ±100 for the full control effect
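S3 HeLa cells stably expressing lamin A-EGFP splicing minigene plus DsRed2, 600 cells/well, 48 h compound exposure at 37C. Laser-scanning cytometry; analysed as GFP (500-530 nm)/RFP (575-640 nm) total intensity ratio; 0.5% DMSO vehicle.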
G9a block = G9a (human) methyltransferase inhibition; Q96KQ7; G9a H3K9 monomethylation, AlphaScreen, 2 h; Potency, µM (highest dose often 102 µM), for inactives: at the highest dose activity, negative = inhibition, most hits filed as inhibitors; actives 8.8% (n = 350,000); AID 504332; note: potency is the fitted concentration of half-maximal effect; % is set by controls: 0 for no effect and ±100 for the full control effect; nearly all actives have a fitted effect of over 75% in size
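Step 1: enzyme (final 20 nM) with compound, 15 min RT. Step 2: substrate peptide 500 nM and SAM 20 uM, 2 h RT. Step 3: anti-H3K9me1 antibody and AlphaScreen beads, 10 min, then plate read.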
KDM4E inh = inhibitors of human JMJD2E histone demethylase; B2RXH2; JMJD2E catalytic domain, FDH-coupled NADH fluorescence (FDH is formaldehyde dehydrogenase); Potency, µM (doses to about 57.1 µM), for the others: at the top dose activity change, negative = inhibition, hits mostly inhibitors; actives 1.6% (n = 230,000); active = well fitted inhibition curve with a large enough effect, not every such curve was filed as active; inconclusive = small, poorly fitted or top-dose-only effect, or another doubt; inactive = no such curve, though single readings can be large or run the other way;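 note: potency is the fitted concentration of half-maximal effect; 0% = wells with enzyme and -100% = buffer wells without enzyme; nearly all actives have a fitted effect of over 50% in size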
ALDH1A1 inh = blocks purified human ALDH1A1 activity | P00352 | Purified ALDH1A1, NADH fluorescence, propionaldehyde substrate | Potency, µM (series often up to 75.3 µM), inactives show top-dose activity, negative = inhibition, actives largely listed as inhibitors | actives 7.3% (n = 220,000) | AID 1030; active = well fitted inhibition curve with a large enough effect, not every such curve was filed as active; inconclusive = small, poorly fitted or top-dose-only effect, or another doubt; inactive = no such curve, though single readings can be large or run the other way;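 note: potency is the fitted concentration of half-maximal effect; plate controls were no enzyme wells and a reference inhibitor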
miR-21 reporter = raises the signal of a miR-21 reporter; Potency, µM (doses to about 38.3 µM), inactives show top-dose reporter change, positive = more light; HeLa miR-21 FLuc reporter, luciferase, 48 h; AID 2288; 340,000 tested, under 10 active; active = well fitted rising curve with a large enough effect; inconclusive = small, poorly fitted or top-dose-only effect; inactive = no such curve, though single readings can be large or run the other way;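 further: % of control where 0% means no effect; miR-21 action dims this reporter so a rising signal means less miR-21 action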
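Using DMEM plus 10% FBS, HeLa miR-21-FLuc cells are incubated with test compounds (final up to about 40uM) for 48 hours; firefly luciferase signal is then imaged following reagent-mediated lysis.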
Sfp inh = qHTS Assay for Inhibitors of Bacillus subtilis Sfp phosphopantetheinyl transferase (PPTase). Potency, µM, inactives show max response, negative = inhibition, most hits filed as inhibitors. Biochemical Sfp PPTase activity, qHTS. AID 1490, 2009. 4'-phosphopantetheinyl transferase ffp (Bacillus subtilis), Q9F4F7. hit rate 3.5% among 310,000; active = well fitted inhibition curve with a large enough effect; inconclusive = small, poorly fitted or top-dose-only effect, or another doubt; inactive = no such curve, though single readings can be large or run the other way;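 also: the enzyme is Sfp with the accession as filed and its product quenches rhodamine fluorescence; potency is read from the fitted curve at half-maximal effect; 0% = enzyme reaction without inhibitor and -100% = no enzyme wells; top concentration of the series not given in the record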
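Sfp 15 nM + cpd, 15 min RT; start w/ rhodamine-CoA 5 uM, BHQ-2-YbbR 12.5 uM (final); 50 mM Hepes pH 7.6, 10 mM MgCl2, 0.01% NP-40, 0.01% BSA; read 525/598 nm at 0 and 30 min.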
* hit, by the source's call; ! = repeats disagree; [ ] = dose if it differs, or a comment. Unless noted, calls come from the whole dose curve; as a rule, active = well fitted curve in the direction sought with a large enough effect; inconclusive = small, poorly fitted or top-dose-only effect, or another doubt; inactive = no such curve, though single readings can be large; an effect the other way counts as inactive or inconclusive.

A first look (two entries):
Results for CCOC(=O)CCc1c(C)nc2cc(-c3cc(OC)cc(OC)c3)[nH]n2c1=O ?
G9a block: 9%[59 µM]; miR-21 reporter: -12%

Results for COc1cccc2c1OC(=O)CC2c1ccc(C)cc1 (stereo not drawn) ?
G9a block: 6%; ALDH1A1 inh: -4%[120 µM]; Sfp inh: -10%

Results, repeating the preview:
Results for CCOC(=O)CCc1c(C)nc2cc(-c3cc(OC)cc(OC)c3)[nH]n2c1=O ?
G9a block: 9%[59 µM]; miR-21 reporter: -12%

Results for COc1cccc2c1OC(=O)CC2c1ccc(C)cc1 (stereo not drawn) ?
G9a block: 6%; ALDH1A1 inh: -4%[120 µM]; Sfp inh: -10%

What do the screens show for `CS(=O)(=O)NCC(c1ccco1)N1CCN(c2ccc(F)cc2)CC1` (stereo not drawn)?
Lamin A splicing: inconclusive; G9a block: 45µM*!; KDM4E inh: -11%; ALDH1A1 inh: -9%; miR-21 reporter: -3%; Sfp inh: 1%

How did COc1ccc(CCC(=O)NCC23CC4CC(CC(C4)C2)C3)cc1 do in these assays?
G9a block: 0%; miR-21 reporter: -5%; Sfp inh: 11%

Results for COc1ccc(CCNCC(O)COc2cccc(Br)c2)cc1OC (stereo not drawn) ?
KDM4E inh: inconclusive; miR-21 reporter: -16%; Sfp inh: -17%

How did COc1ccc(CCNCC(O)COc2ccc(OC)cc2C(C)(C)C)cc1 (stereo not drawn) do in these assays?
G9a block: 45µM*; miR-21 reporter: 0%; Sfp inh: inconclusive

What do the screens show for `C/C(=N\NC(=O)Cc1ccc(Cl)cc1)c1ccccc1O`?
G9a block: 84%; miR-21 reporter: 20%; Sfp inh: 11%

How did COc1ccc(-c2noc(-c3cccnc3NCc3ccco3)n2)cc1 do in these assays?
G9a block: inconclusive; miR-21 reporter: -3%

Results for C#CCOCCOCCOCCNc1nc(N2CCN(C(=O)[C@H](CCC(=O)O)n3cc(C(N)CO)nn3)CC2)nc(N2CCN(C(=O)[C@H](CCC(=O)O)n3cc(C(N)CC(C)C)nn3)CC2)n1 (stereo partly drawn) ?
G9a block: inconclusive; KDM4E inh: 22µM*; miR-21 reporter: 4%; Sfp inh: 89µM*

How did C#CCOCCOCCOCCNc1nc(N2CCN(C(=O)[C@H](Cc3cc4ccccc4[nH]3)n3cc([C@@H](N)CC(C)C)nn3)CC2)nc(N2CCN(C(=O)[C@H](Cc3cc4ccccc4[nH]3)n3cc([C@@H](N)CC(C)C)nn3)CC2)n1 do in these assays?
G9a block: inconclusive; KDM4E inh: inconclusive; ALDH1A1 inh: inconclusive; miR-21 reporter: 1%; Sfp inh: 16µM*

How did C#CCOCCOCCOCCNc1nc(N2CCN(C(=O)[C@H](Cc3cc4ccccc4[nH]3)n3cc([C@@H](N)Cc4ccc(O)cc4)nn3)CC2)nc(N2CCN(C(=O)[C@H](Cc3cc4ccccc4[nH]3)n3cc([C@@H](N)CC(C)C)nn3)CC2)n1 do in these assays?
G9a block: inconclusive; KDM4E inh: inconclusive; miR-21 reporter: 15%; Sfp inh: 56µM*

What do the screens show for `C#CCOCCOCCOCCNc1nc(N2CCOCC2)nc(N2CCN(C(=O)[C@H](Cc3cc4ccccc4[nH]3)n3cc([C@@H](N)CC(C)C)nn3)CC2)n1`?
G9a block: inconclusive; KDM4E inh: -5%; ALDH1A1 inh: -6%; miR-21 reporter: -7%; Sfp inh: -22%

Results for O=C(C1=C(O)C(=O)N(CCCn2ccnc2)C1c1cccc(Br)c1)c1ccco1 (stereo not drawn) ?
miR-21 reporter: -6%; Sfp inh: 20%

What do the screens show for `COc1ccc(OC)c(NC(=O)CSc2ccnc(=O)[nH]2)c1`?
Lamin A splicing: inconclusive; G9a block: 8%[59 µM]; miR-21 reporter: 4%

Results for CNC(=O)/C(C#N)=C/c1ccc(-c2ccc(OC)cc2[N+](=O)[O-])o1 ?
Lamin A splicing: -9%; G9a block: inconclusive; KDM4E inh: 1%; ALDH1A1 inh: 0%; miR-21 reporter: -77%; Sfp inh: 9%
